Reference: publication PMC4110911 (Bioorganic & medicinal chemistry letters, 2014)

Protein sequences, listed by entry. Tags and fused reporters are not part of them. Lines headed by an entry give the natural chain unless they say otherwise; changes in a name come on top.
UniProt P49841: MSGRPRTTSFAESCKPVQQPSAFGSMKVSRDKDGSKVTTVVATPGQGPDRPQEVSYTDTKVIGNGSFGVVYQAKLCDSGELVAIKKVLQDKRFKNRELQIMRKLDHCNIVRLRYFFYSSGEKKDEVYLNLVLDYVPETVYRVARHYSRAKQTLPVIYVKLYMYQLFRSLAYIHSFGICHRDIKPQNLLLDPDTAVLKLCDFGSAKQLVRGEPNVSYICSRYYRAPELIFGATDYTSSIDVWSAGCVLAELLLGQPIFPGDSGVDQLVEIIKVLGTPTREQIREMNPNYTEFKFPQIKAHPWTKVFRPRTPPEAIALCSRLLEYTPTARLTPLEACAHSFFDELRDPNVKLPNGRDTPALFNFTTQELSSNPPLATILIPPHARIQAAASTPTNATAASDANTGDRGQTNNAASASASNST

Assays:
PKC = assay: PepTag non-radioactive PKC assay; assay type: biochemical; settings: read-out: IC50 value, PKC; mean ± standard deviation, triplicate
GSK-3β = GSK-3β (Homo sapiens, UniProt P49841); assay: GSK-3β kinase assay; assay type: biochemical; settings: read-out: IC50 value, GSK-3β; mean ± standard deviation, triplicate

IC50 (PKC): 750 ± 9.3 µM
IC50 (GSK-3β): 0.158 ± 0.0191 µM
SMILES: Cc1ccnc2c(NCc3ccc(O)cc3)cc(O)c(Oc3cccc(C(F)(F)F)c3)c12 [Compound 10]
